{
  "sequences": {"note": "Sequences of proteins named here, by UniProt entry; tags and fusion partners are left off.", "UniProt O75762, whole entry, looked up": "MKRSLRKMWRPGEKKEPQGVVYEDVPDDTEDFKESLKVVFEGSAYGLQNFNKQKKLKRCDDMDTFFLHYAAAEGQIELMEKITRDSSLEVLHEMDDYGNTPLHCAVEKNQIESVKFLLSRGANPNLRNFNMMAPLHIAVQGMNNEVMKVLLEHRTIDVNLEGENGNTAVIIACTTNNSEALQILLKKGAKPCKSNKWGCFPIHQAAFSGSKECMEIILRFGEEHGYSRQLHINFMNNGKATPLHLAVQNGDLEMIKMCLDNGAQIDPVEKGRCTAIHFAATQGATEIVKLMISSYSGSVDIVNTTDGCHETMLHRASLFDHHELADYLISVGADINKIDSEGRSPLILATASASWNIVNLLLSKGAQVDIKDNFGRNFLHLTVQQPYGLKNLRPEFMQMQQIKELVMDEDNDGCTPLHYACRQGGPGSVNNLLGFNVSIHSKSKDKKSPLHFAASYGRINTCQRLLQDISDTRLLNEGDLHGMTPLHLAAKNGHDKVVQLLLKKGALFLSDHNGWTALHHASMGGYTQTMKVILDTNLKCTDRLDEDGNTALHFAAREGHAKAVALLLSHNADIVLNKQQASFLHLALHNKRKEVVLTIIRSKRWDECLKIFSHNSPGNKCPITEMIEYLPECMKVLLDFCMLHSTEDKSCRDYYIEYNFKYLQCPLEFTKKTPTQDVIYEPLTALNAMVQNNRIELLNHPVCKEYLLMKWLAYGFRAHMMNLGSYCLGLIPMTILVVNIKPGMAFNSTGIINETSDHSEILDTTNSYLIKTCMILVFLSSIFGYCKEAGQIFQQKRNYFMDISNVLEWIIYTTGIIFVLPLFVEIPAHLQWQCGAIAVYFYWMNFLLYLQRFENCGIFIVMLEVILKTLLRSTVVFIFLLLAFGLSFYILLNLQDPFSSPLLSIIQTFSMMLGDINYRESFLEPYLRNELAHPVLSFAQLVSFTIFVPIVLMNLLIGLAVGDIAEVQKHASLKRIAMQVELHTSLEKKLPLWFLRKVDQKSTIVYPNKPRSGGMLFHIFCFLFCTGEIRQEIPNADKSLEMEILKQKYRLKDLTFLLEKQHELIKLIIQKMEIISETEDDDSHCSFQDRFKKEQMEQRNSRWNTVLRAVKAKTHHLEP"},
  "source": "BindingDB's records for 20806939",
  "biological_target": "Transient receptor potential cation channel subfamily A member 1 (Homo sapiens, UniProt O75762)",
  "data": [
    {"smiles": "S=C=NCc1ccccc1", "values": [
      {"measurement": "EC50", "result": 11, "unit": "µM"}
    ]}
  ]
}
